Assay results from PubChem BioAssay (NCI).
“And” between values parts separate entries of the source, which are not always exact repeats. Equal entries are not always repeated. Some results for these compounds are left out of this collection, so the calls shown say nothing about other tests.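 How tested: cells in 96-well plates exposed to compound for 48 hours at five concentrations. The concentration for 50% growth inhibition is given as GI50. TGI: concentration producing complete growth inhibition.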

Legend:
Test in all cases: inhibition of tumour cell growth, NCI panel, 48 h
SK-MEL-2 melanoma = tested on: SK-MEL-2 melanoma
HCT-15 colon = tested on: HCT-15 colon
HT29 colon = tested on: HT29 colon
BT-549 breast = tested on: BT-549 breast
SF-539 CNS = tested on: SF-539 CNS
SR leukemia = tested on: SR leukemia
NCI-H522 lung = tested on: NCI-H522 lung
NCI-H460 lung = tested on: NCI-H460 lung
KM12 colon = tested on: KM12 colon
K-562 leukemia = tested on: K-562 leukemia
MDA-MB-435 = tested on: MDA-MB-435
HCT-116 colon = tested on: HCT-116 colon
OVCAR-3 ovarian = tested on: OVCAR-3 ovarian
CAKI-1 renal = tested on: CAKI-1 renal
ACHN renal = tested on: ACHN renal
786-0 renal = tested on: 786-0 renal
OVCAR-5 ovarian = tested on: OVCAR-5 ovarian
MCF7 breast = tested on: MCF7 breast
M14 melanoma = tested on: M14 melanoma
HS 578T breast = tested on: HS 578T breast
SNB-75 CNS = tested on: SNB-75 CNS
HOP-62 NSCLC = tested on: HOP-62 NSCLC
MDA-N = tested on: MDA-N
T-47D breast = tested on: T-47D breast
SK-MEL-28 melanoma = tested on: SK-MEL-28 melanoma
HOP-92 NSCLC = tested on: HOP-92 NSCLC
A498 renal = tested on: A498 renal
SK-MEL-5 melanoma = tested on: SK-MEL-5 melanoma
TK-10 renal = tested on: TK-10 renal
MALME-3M melanoma = tested on: MALME-3M melanoma
SK-OV-3 ovarian = tested on: SK-OV-3 ovarian
SF-295 CNS = tested on: SF-295 CNS
MOLT-4 leukemia = tested on: MOLT-4 leukemia
UACC-257 melanoma = tested on: UACC-257 melanoma
U251 CNS = tested on: U251 CNS
RXF 393 renal = tested on: RXF 393 renal
UACC-62 melanoma = tested on: UACC-62 melanoma
DU-145 prostate = tested on: DU-145 prostate
UO-31 renal = tested on: UO-31 renal
OVCAR-4 ovarian = tested on: OVCAR-4 ovarian
EKVX NSCLC = tested on: EKVX NSCLC
HL-60(TB) leukemia = tested on: HL-60(TB) leukemia
A549 NSCLC = tested on: A549 NSCLC
SNB-19 CNS = tested on: SNB-19 CNS
NCI-H23 lung = tested on: NCI-H23 lung
COLO 205 colon = tested on: COLO 205 colon
OVCAR-8 ovarian = tested on: OVCAR-8 ovarian
CCRF-CEM leukemia = tested on: CCRF-CEM leukemia
SW-620 colon = tested on: SW-620 colon
MDA-MB-231 breast = tested on: MDA-MB-231 breast
RPMI-8226 leukemia = tested on: RPMI-8226 leukemia
HCC-2998 colon = tested on: HCC-2998 colon
NCI-H226 lung = tested on: NCI-H226 lung
IGROV1 ovarian = tested on: IGROV1 ovarian
SN12C renal = tested on: SN12C renal
NCI/ADR-RES ovarian = tested on: NCI/ADR-RES ovarian
SF-268 CNS = tested on: SF-268 CNS
LOX IMVI melanoma = tested on: LOX IMVI melanoma
PC-3 prostate = tested on: PC-3 prostate

In the case of `O=C(OC1CN2CCC1CC2)C(c1ccccc1)C1(O)CCCC1` (stereo not drawn), the GI50 (SK-MEL-2 melanoma) is reported as greater than 100 µM, the TGI (SK-MEL-2 melanoma) is reported as greater than 100 µM and the GI50 (HCT-15 colon) is reported as greater than 100 µM. It also gave a TGI (HCT-15 colon) greater than 100 µM, a GI50 (HT29 colon) greater than 100 µM and a TGI (HT29 colon) greater than 100 µM. It also gave a GI50 (BT-549 breast) greater than 100 µM, a TGI (BT-549 breast) greater than 100 µM and a GI50 (SF-539 CNS) greater than 100 µM. For the same molecule, the TGI (SF-539 CNS) was greater than 100 µM, the GI50 (SR leukemia) was greater than 100 µM and the TGI (SR leukemia) was greater than 100 µM. For the same molecule, the GI50 (NCI-H522 lung) was greater than 100 µM, the TGI (NCI-H522 lung) was greater than 100 µM and the GI50 (NCI-H460 lung) was greater than 100 µM. For the same molecule, the TGI (NCI-H460 lung) was greater than 100 µM, the GI50 (KM12 colon) was greater than 100 µM and the TGI (KM12 colon) was greater than 100 µM. For the same molecule, the GI50 (K-562 leukemia) was greater than 100 µM, the TGI (K-562 leukemia) was greater than 100 µM and the GI50 (MDA-MB-435) was greater than 100 µM. It also gave a TGI (MDA-MB-435) greater than 100 µM, a GI50 (HCT-116 colon) greater than 100 µM and a TGI (HCT-116 colon) greater than 100 µM. For the same molecule, the GI50 (OVCAR-3 ovarian) was greater than 100 µM, the TGI (OVCAR-3 ovarian) was greater than 100 µM and the GI50 (CAKI-1 renal) was greater than 100 µM. For the same molecule, the TGI (CAKI-1 renal) was greater than 100 µM, the GI50 (ACHN renal) was greater than 100 µM and the TGI (ACHN renal) was greater than 100 µM. It also gave a GI50 (786-0 renal) greater than 100 µM, a TGI (786-0 renal) greater than 100 µM and a GI50 (OVCAR-5 ovarian) greater than 100 µM. For the same molecule, the TGI (OVCAR-5 ovarian) was greater than 100 µM, the GI50 (MCF7 breast) was greater than 100 µM and the TGI (MCF7 breast) was greater than 100 µM. For the same molecule, the GI50 (M14 melanoma) was greater than 100 µM, the TGI (M14 melanoma) was greater than 100 µM and the GI50 (HS 578T breast) was 90.1 µM and 20.1 µM. For the same molecule, the TGI (HS 578T breast) was greater than 100 µM, the GI50 (SNB-75 CNS) was > 100 µM and 43.7 µM and the TGI (SNB-75 CNS) was greater than 100 µM. It also gave a GI50 (HOP-62 NSCLC) greater than 100 µM, a TGI (HOP-62 NSCLC) greater than 100 µM and a GI50 (MDA-N) greater than 100 µM. For the same molecule, the TGI (MDA-N) was greater than 100 µM, the GI50 (T-47D breast) was greater than 100 µM and the TGI (T-47D breast) was greater than 100 µM. It also gave a GI50 (SK-MEL-28 melanoma) greater than 100 µM, a TGI (SK-MEL-28 melanoma) greater than 100 µM and a GI50 (HOP-92 NSCLC) greater than 100 µM. It also gave a TGI (HOP-92 NSCLC) greater than 100 µM, a GI50 (A498 renal) of 29.1 µM and a TGI (A498 renal) greater than 100 µM. The GI50 (SK-MEL-5 melanoma) was > 100 µM and 96.5 µM, the TGI (SK-MEL-5 melanoma) was greater than 100 µM and the GI50 (TK-10 renal) was greater than 100 µM. The TGI (TK-10 renal) was greater than 100 µM, the GI50 (MALME-3M melanoma) was greater than 100 µM and the TGI (MALME-3M melanoma) was greater than 100 µM. The GI50 (SK-OV-3 ovarian) was greater than 100 µM, the TGI (SK-OV-3 ovarian) was greater than 100 µM and the GI50 (SF-295 CNS) was > 100 µM and 43.5 µM. It also gave a TGI (SF-295 CNS) greater than 100 µM, a GI50 (MOLT-4 leukemia) greater than 100 µM and a TGI (MOLT-4 leukemia) greater than 100 µM. For the same molecule, the GI50 (UACC-257 melanoma) was greater than 100 µM, the TGI (UACC-257 melanoma) was greater than 100 µM and the GI50 (U251 CNS) was greater than 100 µM. The TGI (U251 CNS) was greater than 100 µM, the GI50 (RXF 393 renal) was > 100 µM and 33.9 µM and the TGI (RXF 393 renal) was greater than 100 µM. It also gave a GI50 (UACC-62 melanoma) greater than 100 µM, a TGI (UACC-62 melanoma) greater than 100 µM and a GI50 (DU-145 prostate) greater than 100 µM. The TGI (DU-145 prostate) was greater than 100 µM, the GI50 (UO-31 renal) was > 100 µM and 57.8 µM and the TGI (UO-31 renal) was greater than 100 µM. It also gave a GI50 (OVCAR-4 ovarian) greater than 100 µM, a TGI (OVCAR-4 ovarian) greater than 100 µM and a GI50 (EKVX NSCLC) greater than 100 µM. It also gave a TGI (EKVX NSCLC) greater than 100 µM, a GI50 (HL-60(TB) leukemia) greater than 100 µM and a TGI (HL-60(TB) leukemia) greater than 100 µM. It also gave a GI50 (A549 NSCLC) greater than 100 µM, a TGI (A549 NSCLC) greater than 100 µM and a GI50 (SNB-19 CNS) greater than 100 µM. The TGI (SNB-19 CNS) was greater than 100 µM, the GI50 (NCI-H23 lung) was greater than 100 µM and the TGI (NCI-H23 lung) was greater than 100 µM. For the same molecule, the GI50 (COLO 205 colon) was greater than 100 µM, the TGI (COLO 205 colon) was greater than 100 µM and the GI50 (OVCAR-8 ovarian) was greater than 100 µM. It also gave a TGI (OVCAR-8 ovarian) greater than 100 µM, a GI50 (CCRF-CEM leukemia) greater than 100 µM and a TGI (CCRF-CEM leukemia) greater than 100 µM. It also gave a GI50 (SW-620 colon) greater than 100 µM, a TGI (SW-620 colon) greater than 100 µM and a GI50 (MDA-MB-231 breast) greater than 100 µM. For the same molecule, the TGI (MDA-MB-231 breast) was greater than 100 µM, the GI50 (RPMI-8226 leukemia) was greater than 100 µM and the TGI (RPMI-8226 leukemia) was greater than 100 µM. The GI50 (HCC-2998 colon) was greater than 100 µM, the TGI (HCC-2998 colon) was greater than 100 µM and the GI50 (NCI-H226 lung) was > 100 µM and 87.8 µM. It also gave a TGI (NCI-H226 lung) greater than 100 µM, a GI50 (IGROV1 ovarian) greater than 100 µM and a TGI (IGROV1 ovarian) greater than 100 µM. For the same molecule, the GI50 (SN12C renal) was greater than 100 µM, the TGI (SN12C renal) was greater than 100 µM and the GI50 (NCI/ADR-RES ovarian) was greater than 100 µM. For the same molecule, the TGI (NCI/ADR-RES ovarian) was greater than 100 µM, the GI50 (SF-268 CNS) was greater than 100 µM and the TGI (SF-268 CNS) was greater than 100 µM. For the same molecule, the GI50 (LOX IMVI melanoma) was greater than 100 µM, the TGI (LOX IMVI melanoma) was greater than 100 µM and the GI50 (PC-3 prostate) was greater than 100 µM. It also gave a TGI (PC-3 prostate) greater than 100 µM.
